Measured water solubility values of organic chemicals

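These are experimental values that the OPERA curators gathered from public databases to train and test their QSAR models. The files give a single number for a compound and property, which may rest on several reports. Method and conditions are not stated for these values. The measured form (salt, isomer or mixture) is not always the one drawn. Some upstream entries may be estimates or bounds without being marked so.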

Water solubility is log10 of mol/L, nominally at 25 °C; higher is more soluble.
"n/a" marks a cell with nothing listed here.

| compound | name | log S (log10 mol/L) |
|---|---|---|
| CCCOc1ccc(C2=CCC([C@H]3CC[C@H](CCC)CC3)CC2)c(F)c1F (some centres not stated) | n/a | -6.934 |
| O=S(=O)(O)CCN1CCN(CCS(=O)(=O)O)CC1 | 1,4-Piperazinediethanesulfonic acid | -2.717 |
| CC(=O)c1ccc(NC(=O)Nc2ccc(C(C)=O)cc2)cc1 | Carbanilide, 4,4'-diacetyl- (8CI) | -3.859 |
| Nc1ccc(S(=O)(=O)Nc2ncc(C(=O)O)s2)cc1 | n/a | -2.874 |
| CCCCCCCCCCCC(=O)NCCCC[C@H](N)C(=O)O | L-Lysine, N6-(1-oxododecyl)- | -6.245 |
| COc1ccc(OC)c(N)c1 | Benzenamine, 2,5-dimethoxy- | -1.859 |
| OCc1ccc(-c2ccccc2)cc1 | 4-Biphenylmethanol | -2.45 |
| Cc1cc([N+](=O)[O-])ccc1N=Nc1c(O)c(C(=O)Nc2ccccc2C)cc2ccccc12 | n/a | -7.981 |
| CCOC(O)=NS(=O)(=O)c1ccc(C)cc1 | Ethyl hydrogen (4-methylbenzene-1-sulfonyl)carbonimidate | -2.243 |
| COC(Cc1ccccc1)OC | Phenylacetaldehyde dimethyl acetal | -1.63 |
| COc1ccc(C(OC[C@H]2O[C@@H](n3cnc4c(=O)nc(NC(=O)C(C)C)[nH]c43)C[C@@H]2O)(c2ccccc2)c2ccc(OC)cc2)cc1 | n/a | -5.426 |
| CCCCCCCCCCCCCCCCCC(=O)OC(CCCCCC)CCCCCCCCCCC(=O)OCC(CCCCCCCC)CCCCCCCCCC (configuration not stated) | n/a | -8.785 |
| O=C(O)CC=CCC(=O)O | 3-Hexenedioic acid | -1.388 |
| CNC(=O)c1cc(C#N)cc(C)c1N | 2-Amino-5-cyano-N,3-dimethylbenzamide | -3.047 |
| CCOC(=O)O[C@]1(C(=O)COC(=O)CC)CC[C@H]2[C@@H]3CCC4=CC(=O)C=C[C@]4(C)[C@H]3[C@@H](O)C[C@@]21C | Prednicarbate | -4.939 |
| CC(C)[C@@H](C)/C=C/[C@@H](C)[C@H]1CC[C@H]2/C(=C/C=C3\C[C@@H](O)CC[C@@H]3C)CCC[C@]12C | Dihydrotachysterol | -6.504 |
| Cc1ccc(N2C(=O)C=CC2=O)cc1N1C(=O)C=CC1=O | Toluene-2,4-dimaleimide | -3.678 |
| C1CCN([P+](N2CCCCC2)(N2CCCCC2)N2CCCCC2)CC1.[Cl-] | Tetrakis(1-piperidyl)phosphonium chloride | -2.782 |
| CCC(C)n1ncn(-c2ccc(N3CCN(c4ccc(OC)cc4)CC3)cc2)c1=O (configuration not stated) | n/a | -5.86 |
| CCCCCC(CN)CCC (configuration not stated) | 2-Propylheptan-1-amine | -2.746 |
| CC(C)CC(C)(O)C#CC(C)(O)CC(C)C (configuration not stated) | 2,4,7,9-Tetramethyl-5-decyne-4,7-diol | -2.124 |
| O=C1CCCCCCCCCCCCCCCO1 | Oxacycloheptadecan-2-one | -6.393 |
| O=C(c1ccco1)c1no[n+]([O-])c1C(=O)c1ccco1 | 3,4-Bis(2-furoyl)furazan 2-oxide | -3.847 |
| CNC(=O)Nc1cccc(Cl)c1 | N-(3-chlorophenyl)-N'-methylurea | -2.41 |
| O=Cc1cc(Br)ccc1O | 5-Bromosalicylaldehyde | -3.303 |
| C=CCCCCCCO | Oct-7-en-1-ol | -1.744 |
| CCOC(=O)N(c1ccccc1)c1ccccc1 | Ethyl diphenylcarbamate | -3.969 |
| CO[C@H](OC(C)=O)[C@H](OC(C)=O)[C@@H](OC(C)=O)[C@@H](COC(C)=O)OC(C)=O | (1R)-D-Xylose, methyl hemiacetal, pentaacetate | -1.816 |
| CC1=NN(c2ccccc2)C(=O)C1/N=N/c1cccc([N+](C)(C)C)c1.[Cl-] (stereo partly drawn) | n/a | -1.894 |
| CCC(=O)CC(=O)C(=O)O | 2,4-Dioxohexanoic acid | -0.395 |
| CCCCCCCCCCCCCCCCCCCCCCOC(=O)CCCCCCCCC(=O)OCCCCCCCCCCCCCCCCCCCCCC | Didocosyl sebacate | -6.406 |
| CC(C=O)c1ccccc1 (configuration not stated) | Hydratropaldehyde | -1.713 |
| Nc1ccc(S(=O)(=O)Nc2ccc(Cl)nn2)cc1 | Sulfachloropyridazine | -1.611 |
| Nc1nc(=O)[nH]c2nccnc12 | 4-Amino-2(1H)-pteridinone | -3.359 |
| c1ccc(OCCOc2ccccc2)cc1 | 1,2-Diphenoxyethane | -3.989 |
| O=C1Nc2nc(=O)nc3[nH]c(=O)nc(n23)N1 | 1,3,4,6,7,9,9b-Heptaazaphenalene-2,5,8(1H,3H,6H)-trione | -1.964 |
| Oc1ccc(CCCCNC[C@H](O)c2ccc(O)c(O)c2)cc1 | Arbutamine | -3.576 |
| COC(=O)[C@H]1[C@H]2C[C@@H]3c4[nH]c5cc(OC)ccc5c4CCN3C[C@H]2C[C@@H](OC(=O)/C=C/c2cc(OC)c(OC)c(OC)c2)[C@@H]1OC | Rescinnamine | -5.26 |
| CO[Si](CCCN=C=O)(OC)OC | Silane, (3-isocyanatopropyl)trimethoxy- | -3.257 |
| CCCCCCCCCCCCCC(=O)OC(C)C | Isopropyl tetradecanoate | -7.29 |
| CC(C)Oc1ccc(COc2ccc(CC(=O)O)cc2Cl)cc1 | n/a | -0.616 |
| CCCC(=O)OC(C)C1CCCCC1 (configuration not stated) | 1-Cyclohexylethyl butyrate | -3.921 |
| O=C(O)c1cn(C2CC2)c2c(F)c(N3C[C@@H]4CCCN[C@@H]4C3)c(F)cc2c1=O | 8-Desmethoxy-8-fluoro moxifloxacin | -2.192 |
| C=CC(F)(F)C(F)(F)C(F)(F)C(F)(F)F | 3,3,4,4,5,5,6,6,6-Nonafluorohexene | -4.198 |
| CCC(CC)C(=O)OCCOCCOCCOC(=O)C(CC)CC | Triethylene glycol di-(2-ethylbutyrate) | -3.239 |
| C=C1CC[C@H](O)C/C1=C/C=C1\CCC[C@]2(C)[C@@H]([C@H](C)/C=C/[C@H](C)C(C)C)CC[C@@H]12 | Ergocalciferol | -3.9 |
| NS(=O)(=O)c1cc2c(s1)S(=O)(=O)CCC2=O | n/a | -3.02 |
| Nc1cc(Cl)c(Cl)c(Cl)c1Cl | n/a | -4.53 |
| O=C1Oc2cc3c(cc2=C1c1ccccc1)OC(=O)C=3c1ccc(OCC2CCCO2)cc1 (configuration not stated) | n/a | -6.343 |
| CC1=NOC(=O)C1=NO | 4-(Hydroxyimino)-3-methyl-1,2-oxazol-5(4H)-one | -0.539 |
| CN1CCSC1=S | 2-Thiazolidinethione, 3-methyl- | -1.562 |
| F[P-](F)(F)(F)(F)F.F[P-](F)(F)(F)(F)F.c1ccc([S+](c2ccccc2)c2ccc(Sc3ccc([S+](c4ccccc4)c4ccccc4)cc3)cc2)cc1 | n/a | -4.059 |
| C=CC(=O)OCCOCCOCC(CC)CCCC (configuration not stated) | Di(ethylene glycol) 2-ethylhexyl ether acrylate | -3.693 |
| C=CC(C)=CCC1OC1(C)C (configuration not stated) | 2,2-Dimethyl-3-(3-methylpenta-2,4-dienyl)oxirane | -2.354 |

The last 6 entries again:

| compound | name | log S (log10 mol/L) |
|---|---|---|
| O=C1Oc2cc3c(cc2=C1c1ccccc1)OC(=O)C=3c1ccc(OCC2CCCO2)cc1 (configuration not stated) | n/a | -6.343 |
| CC1=NOC(=O)C1=NO | 4-(Hydroxyimino)-3-methyl-1,2-oxazol-5(4H)-one | -0.539 |
| CN1CCSC1=S | 2-Thiazolidinethione, 3-methyl- | -1.562 |
| F[P-](F)(F)(F)(F)F.F[P-](F)(F)(F)(F)F.c1ccc([S+](c2ccccc2)c2ccc(Sc3ccc([S+](c4ccccc4)c4ccccc4)cc3)cc2)cc1 | n/a | -4.059 |
| C=CC(=O)OCCOCCOCC(CC)CCCC (configuration not stated) | Di(ethylene glycol) 2-ethylhexyl ether acrylate | -3.693 |
| C=CC(C)=CCC1OC1(C)C (configuration not stated) | 2,2-Dimethyl-3-(3-methylpenta-2,4-dienyl)oxirane | -2.354 |

From the experimental data distributed with OPERA 2.9.